## Measured water solubility values of organic chemicals

Data: OPERA 2.9 data sets, kmansouri/OPERA on GitHub.

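The OPERA project collected these measurements from public sources as training and test data for property models. One number stands for a compound and property, with no spread given. Method, purity and exact conditions of the single measurements are not given. A value may pool stereoisomers or salt forms, and the file does not say which form was measured. Some upstream entries may be estimates or bounds without being marked so.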

Water solubility is log10 of mol/L, nominally at 25 °C; higher is more soluble.
"n/a" marks a cell with nothing listed here.

SMILES	name	log S (log10 mol/L)
NC(=S)C(N)=S	Dithiooxamide	-2.513
CCOC(=O)C(Cl)C(=O)OCC	Diethyl chloromalonate	-1.721
NC(=O)NC(O)C(Cl)(Cl)Cl (stereo not given)	(1-Hydroxy-2,2,2-trichloroethyl)urea	-0.715
COc1ccc(C(OC[C@H]2O[C@@H](n3cc(C)c(=O)[nH]c3=O)C[C@@H]2OP(OCCC#N)N(C(C)C)C(C)C)(c2ccccc2)c2ccc(OC)cc2)cc1 (some centres not stated)	n/a	-6.164
CC(C)OC(=O)C(O)(c1ccc(Cl)cc1)c1ccc(Cl)cc1	Chloropropylate	-4.53
CCCCCCCC(=O)OOC(=O)CCCCCCC	Peroxide, bis(1-oxooctyl)	-7.612
CC(=O)c1cc2c(cc1C)C(C)(C)C(C)C2C(C)C (stereo not given)	n/a	-5.681
CCC(S(=O)(=O)CC)S(=O)(=O)CC	1,1-Di(ethanesulfonyl)propane	-1.461
N#CCCN1C(=O)C(O)N=C(c2ccccc2F)c2cc(Cl)ccc21 (stereo not given)	Cinolazepam	-4.474
O=C(O)C(F)(F)F.O=C([O-])C(F)(F)F.O=C([O-])C(F)(F)F.c1ccc2c(c1)c1cc[n+]2CCCCC[n+]2ccc(c3ccccc32)NCCCCCN1	n/a	-1.629
O=[PH]1Oc2ccccc2-c2ccccc21 (stereo not given)	6H-Dibenzo[c,e][1,2]oxaphosphinine 6-oxide	-1.782
C=C(Br)CC1(C(C)CC)C(=O)NC(=O)NC1=O (stereo not given)	n/a	-2.65
COC(=O)C(C)Oc1ccc(Oc2ccc(Cl)cc2Cl)cc1 (racemic)	Methyl (RS)-2-[4-(2,4-dichlorophenoxy)phenoxy]propionate	-5.13
CCOC(CN(CC(OCC)OCC)N=O)OCC	Ethanamine, N-(2,2-diethoxyethyl)-2,2-diethoxy-N-nitroso-	-1.606
O=C(CCl)Nc1ccccc1	2-Chloro-N-phenylacetamide	-1.83
O=C([O-])C(F)(F)C(F)(F)C(F)(F)C(F)(F)C(F)(F)C(F)(F)C(F)(F)F.[NH4+]	Ammonium perfluorooctanoate	-1.776
O=[N+]([O-])c1ccc(Cl)c([N+](=O)[O-])c1	1-Chloro-2,4-dinitrobenzene	-4.403
CCNCC(O)c1cccc(O)c1 (stereo not given)	Etilefrine	-3.454
Cc1cccc([N+](=O)[O-])c1C	1,2-Dimethyl-3-nitrobenzene	-3.111
C[C@]12C[C@H]3S[C@H]3C[C@@H]1CC[C@@H]1[C@@H]2CC[C@]2(C)[C@@H](O)CC[C@@H]12	Epitiostanol	-5.41
N#C[C@H](O[C@@H]1O[C@H](CO[C@@H]2O[C@H](CO)[C@@H](O)[C@H](O)[C@H]2O)[C@@H](O)[C@H](O)[C@H]1O)c1ccccc1	Amygdalin	-0.77
O=C1CN=C(c2ccccc2)c2cc(Cl)ccc2N1CC(F)(F)F	Halazepam	-5.317
Nc1cc([N+](=O)[O-])cc([N+](=O)[O-])c1	3,5-Dinitroaniline	-2.15
COP(=S)(OC)Oc1ccc(S(C)=O)c(C)c1 (stereo not given)	Mesulfenfos	-4.9
Nc1cccc(P(=O)(O)O)c1	Phosphonic acid, (3-aminophenyl)-	-1.605
Nc1nc(N)c2[nH]c(N)nc2n1	2,6,8-Triaminopurine	-1.5
BrCCCCCCBr	1,6-Dibromohexane	-3.813
C=CCN1CC[C@]23CCCC[C@H]2[C@H]1Cc1ccc(O)cc13	Levallorphan	-4.051
FC(F)Br	Bromodifluoromethane	0.582
Cc1cc(=O)n(-c2ccccc2)n1-c1ccccc1	5-Methyl-1,2-diphenylpyrazol-3-one	-3.097
Cc1cc([NH3+])ccc1[NH3+].O=S(=O)([O-])[O-]	2,5-Diaminotoluene sulfate	-1.492
CC(Cl)S(=O)(=O)Cl (stereo not given)	1-Chloroethane-1-sulfonyl chloride	-1.367
F[B-](F)(F)[NH+]1CCCCC1	Trifluorido(piperidine)boron	-3.583
CC(C)(C)CCO	3,3-Dimethyl-1-butanol	-0.71
CC(Cc1ccc(C(C)(C)C)cc1)CN1C[C@@H](C)O[C@@H](C)C1 (stereo partly drawn)	(2R,6S)-Fenpropimorph	-4.851
Cc1cc(N=Nc2ccccc2C)ccc1N	2-Amino-5-azotoluene	-4.51
CC(C)(C)c1ccc(OP2OCC3(CO2)COP(Oc2ccc(C(C)(C)C)cc2C(C)(C)C)OC3)c(C(C)(C)C)c1 (stereo not given)	Bis(2,4-di-tert-butylphenyl) pentaerythritol diphosphite	-6.813
CCCCc1c(C)nc(NCC)nc1O	Ethirimol	-2.997
NNC(=S)NN	Thiocarbazide	-1.28
Nc1ccc(Sc2ccc(N)cc2)cc1	4,4'-Thiodianiline	-2.64
c1ccc(Nc2ccc(Nc3ccccc3)cc2)cc1	N,N'-Diphenyl-p-phenylenediamine	-6.239
Nc1cccc(Cl)c1Cl	2,3-Dichloroaniline	-2.13
CCS(=O)(=O)C(C)(C)S(=O)(=O)CC	Sulfonmethane	-1.219
CC(C)C1C(O)=NC(=O)N=C1O	BARBITURIC ACID, 5-IPR	-1.456
Cc1ncc(CNC(N)=O)c(N)n1	N-[(4-Amino-2-methylpyrimidin-5-yl)methyl]urea	-2.258

Excerpt, the final 7 entries:

{"smiles": "NNC(=S)NN", "name": "Thiocarbazide", "log S (log10 mol/L)": "-1.28"}
{"smiles": "Nc1ccc(Sc2ccc(N)cc2)cc1", "name": "4,4'-Thiodianiline", "log S (log10 mol/L)": "-2.64"}
{"smiles": "c1ccc(Nc2ccc(Nc3ccccc3)cc2)cc1", "name": "N,N'-Diphenyl-p-phenylenediamine", "log S (log10 mol/L)": "-6.239"}
{"smiles": "Nc1cccc(Cl)c1Cl", "name": "2,3-Dichloroaniline", "log S (log10 mol/L)": "-2.13"}
{"smiles": "CCS(=O)(=O)C(C)(C)S(=O)(=O)CC", "name": "Sulfonmethane", "log S (log10 mol/L)": "-1.219"}
{"smiles": "CC(C)C1C(O)=NC(=O)N=C1O", "name": "BARBITURIC ACID, 5-IPR", "log S (log10 mol/L)": "-1.456"}
{"smiles": "Cc1ncc(CNC(N)=O)c(N)n1", "name": "N-[(4-Amino-2-methylpyrimidin-5-yl)methyl]urea", "log S (log10 mol/L)": "-2.258"}